Apoferritin bind – candidate novel general anesthetic via apoferritin binding | apoferritin/1-aminoanthracene competitive binding, fluorescence | Potency, µM (titrated, usually from 77.5 µM), for the others: at the highest dose activity change, negative = displacement, most hits filed as inhibitors | hit rate 0.074% among 350,000; further: potency means the concentration at half of the fitted maximal effect; on the % scale 0 is the no-effect control and ±100 the full control effect; nearly all actives have a fitted effect of over 20% in size
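10 uM apoferritin + 50% sat. 1-AMA, PBS; cpd 10 min RT; Ex380/Em535 endpoint; normalized to free probe vs complex; 4-param Hill fit; propofol titration as pos. ctrl.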
BRCA1 expr up – increases BRCA1 expression. MCF7-BRCA1-FFLuc reporter, luminescence, 48 h; response scale: scaled: vehicle 0%, 10 µM genistein 100%. Potency, µM (titrated, usually from 46.1 µM), inactives show top-dose activation, usual class: activators. hit rate 1.1% among 380,000; further: potency means the concentration at half of the fitted maximal effect; nearly all actives have a fitted effect of over 80% in size
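Using MCF7 cells harboring a BRCA1 firefly luciferase reporter, plated 2 h before compound pinning, the screen measured luminescence after 48 h incubation. Responses were normalized to DMSO and 10 microM genistein, then fitted for concentration-effect.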
p53 reactivation – restores transcriptional activity of mutant p53. H1299 p53-A138V BP100-luciferase reporter, luminescence, 24 h. Potency, µM (doses to about 92.2 µM), for inactives: at the top dose activity change, positive = activation, most hits filed as activators. hit rate 0.063% among 320,000; further: potency means the concentration at half of the fitted maximal effect; % of control where 0% means no effect; nearly all actives have a fitted effect of over 45% in size
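p53-null H1299 cells stably carrying temperature-sensitive p53-A138V and a BP100-luciferase reporter were pinned with compounds (4-point, 1:5 series) and held 24 hrs at 37 deg C. Luminescence was read 10 min after detection reagent.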
miR-21 reporter – raises the signal of a miR-21 reporter | HeLa miR-21 FLuc reporter, luciferase, 48 h | Potency, µM (highest dose often 38.3 µM), for inactives: at the highest dose reporter change, positive = more light | 340,000 tested, under 10 active | AID 2288; active = well fitted rising curve with a large enough effect; inconclusive = small, poorly fitted or top-dose-only effect; inactive = no such curve, though single readings can be large or run the other way;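 also: % of control where 0% means no effect; miR-21 action dims this reporter so a rising signal means less miR-21 action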
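Using DMEM plus 10% FBS, HeLa miR-21-FLuc cells are incubated with test compounds (final up to about 40uM) for 48 hours; firefly luciferase signal is then imaged following reagent-mediated lysis.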
* hit, by the source's call; ? = inconclusive; . = no result; ! = a repeat was not active; [ ] = remark or other dose. Sampled rows, rich in hits. Any-hit rate of the full collection: about 1.1%. Unless noted, the call rests on the fitted dose curve; in most records, active means well fitted curve in the direction sought with a large enough effect; inconclusive means small, poorly fitted or top-dose-only effect, or another doubt; inactive means no such curve, though single readings can be large; an effect the other way counts as inactive or inconclusive.

Structure,Apoferritin bind,BRCA1 expr up,p53 reactivation,miR-21 reporter
COc1ccc(NC(=O)c2ccc(Br)o2)cc1,-5%[110 µM],?,?,-81%
Cc1c(NC(=O)c2ccc(Br)o2)cccc1C(=O)O,-11%,3.5µM*,11%,-42%
COc1cccc(NC(=O)c2oc3ccccc3c2NC(C)=O)c1,-5%,3.5µM*,25%,-37%
O=C(Nc1ccc(Nc2ccccc2)cc1)c1ccccc1F,?,1.1µM*,-12%,-40%
CCc1ccc(NC(=O)C2CCN(S(=O)(=O)c3c(C)noc3/C=C\c3ccc(OC)cc3)CC2)cc1,7%,.,.,2%
CCN(CC)c1ccc(NC(=O)c2cc(Cl)ccc2OC)cc1,8%,-47%,2%,-19%
COc1cccc(C(=O)Nc2ccccc2)c1,-9%,?,?,-35%
CCN(CC)c1ccc(NC(=O)c2ccccc2F)cc1,2%,-14%,40µM*,0%
CCOc1cc(/C=N/NC(=O)Nc2ccccc2)ccc1O,-6%,11µM*,11%,-50%
COc1cccc(C(=O)Nc2cnn(C(C)C)c2)c1,-5%,3.5µM*,?,-42%
O=C(Nc1ccc(Nc2ccccc2)cc1)c1ccc(Br)o1,?,?,32µM*,-29%
CC(=O)N1CCN(C(=O)CSc2ncnc3sc(C)c(C)c23)CC1,.,-51%,-2%,.
O=C(CCC(=O)Nc1ccccc1)N/N=C/c1ccco1,?,-11%,-7%,-11%
COc1cccc(C(=O)Nc2cccc(SC)c2)c1,-21%,13µM*,?,-34%
O=C(N/N=C/c1ccco1)Nc1ccccc1,-8%,6.3µM*,?,-53%
Cc1nc(CC(=O)Nc2nc(-c3ccccc3)cs2)cs1,-18%,11µM*,?,-17%
O=C(COC(=O)c1cccs1)Nc1nc(-c2ccccc2)cs1,2%,84%,6%,-28%
O=C(COC(=O)CNC(=O)c1ccccc1)Nc1nc(-c2ccccc2)cs1,?,6.3µM*,?,-43%
O=C(CN1CCN(S(=O)(=O)c2cc(Cl)ccc2Cl)CC1)Nc1cccc(F)c1,-13%,0%,.,11%
Cc1cc(C)c2c(-n3cccc3)c(C(=O)NCCCN3CCCCC3C)sc2n1 (stereo unspecified),?,.,.,6%
CCCC(C)NS(=O)(=O)c1ccccc1 (stereo unspecified),?,-5%,-4%,-2%
CCCC(C)NS(=O)(=O)c1ccc(OC)c(C)c1 (stereo unspecified),16µM*,0%[1.84 µM],0%,-4%
COc1cccc(-c2cc(C(=O)Nc3ccc(OC)cc3OC)no2)c1,5%,.,.,3%
O=C(Nc1ncc(Cl)cn1)c1cccs1,-6%,13µM*,13%,-29%
O=C(Nc1cccc2nsnc12)c1cccs1,-7%,7.1µM*!,?,-30%
Cc1cc(NC(=O)c2ccccc2)ncc1NC(=O)c1cccs1,-16%,7.9µM*,-3%,-53%
CCOc1cccc2sc(NC(=O)c3ccc(S(=O)(=O)N4CCCCC4)cc3)nc12,-5%,2%,.,18%
O=C(c1ccc(-c2ccccc2Cl)o1)N1CCC1,.,2.8µM*,29%,.
O=C(c1ccc(-c2cccc(Cl)c2Cl)o1)N1CCOCC1,-18%,?,3%,-84%
S=C(c1ccc(-c2ccccc2Cl)o1)N1CCOCC1,-4%,7.1µM*,?,-53%
O=C(c1ccc(-c2ccccc2Cl)o1)N1CCCC(C(F)(F)F)C1 (stereo unspecified),.,13µM*,?,.
S=C(c1ccc(-c2ccc(Cl)c(Cl)c2)o1)N1CCOCC1,-21%,?,?,-61%
S=C(c1ccc(-c2ccc(Cl)cc2Cl)o1)N1CCCCC1,-2%,7.9µM*,?,-54%
Cc1ccsc1CN(C(=O)COc1ccccc1Cl)C1CCS(=O)(=O)C1 (stereo unspecified),-3%,.,.,-8%
CCOC(=O)c1ccc(OS(=O)(=O)c2ccccc2)c(OC)c1,-6%,5.6µM*,?,-72%
CCOc1cc(C(=S)N2CCOCC2)ccc1OS(=O)(=O)c1ccccc1,4%,-32%,0%,-3%
CC(=O)c1ccccc1NC(=O)c1ccc(N2CCCC2=O)cc1,.,7.9µM*,2%,.
CSc1ccccc1NC(=O)c1ccc(N2CCCC2=O)cc1,.,10µM*,?,.
CC(=O)c1ccc(NC(=O)c2ccc(N3CCCC3=O)cc2)cc1,.,17%,7%,.
O=C([C@@H]1CCCN1C(=O)c1cccs1)N1CCN(S(=O)(=O)c2cccc(F)c2)CC1,.,0%,-6%,.

Fetched one by one from the entries so far, four records:
Structure,Apoferritin bind,BRCA1 expr up,p53 reactivation,miR-21 reporter
O=C(c1ccc(-c2ccccc2Cl)o1)N1CCCC(C(F)(F)F)C1 (stereo unspecified),.,13µM*,?,.
Cc1ccsc1CN(C(=O)COc1ccccc1Cl)C1CCS(=O)(=O)C1 (stereo unspecified),-3%,.,.,-8%
O=C(Nc1ncc(Cl)cn1)c1cccs1,-6%,13µM*,13%,-29%
CC(=O)c1ccccc1NC(=O)c1ccc(N2CCCC2=O)cc1,.,7.9µM*,2%,.

Single records (already shown). Order of screens: Apoferritin bind | BRCA1 expr up | p53 reactivation | miR-21 reporter
Entry for Cc1ccsc1CN(C(=O)COc1ccccc1Cl)C1CCS(=O)(=O)C1 (stereo unspecified) = -3% | . | . | -8%
Entry for S=C(c1ccc(-c2ccc(Cl)cc2Cl)o1)N1CCCCC1 = -2% | 7.9µM* | ? | -54%

(listing goes on)
Structure,Apoferritin bind,BRCA1 expr up,p53 reactivation,miR-21 reporter
c1ccc(-n2nnc(-c3cccnc3)n2)cc1,-16%,7.9µM*,?,-59%
c1ccc(OCCCn2nnc(-c3cccnc3)n2)cc1,1%,-3%,1%,-6%
COc1ccc(-c2cc(-c3cc(F)ccc3O)[nH]n2)cc1OC,-10%,10µM*,8%,-31%
Cc1cc(OC(C)C)c2c(-c3ccccc3)cc(=O)oc2c1,18µM*,-38%,0%,-7%
c1ccc(-c2cnnc(-c3ccccn3)n2)cc1,.,4.5µM*,.,.
COc1cccc2c(=O)c3ccccc3oc12,-2%,?,8%,-35%
O=c1c2ccccc2oc2ncccc12,-16%,13µM*,12%,-16%
Cc1ccc(C(=O)c2ncc[nH]2)cc1,.,14µM*,14%,.
CCCCCn1c(=O)[nH]c2cc(C(=O)NCc3ccc(F)cc3)ccc2c1=O,-2%,-4%,.,1%
Cn1c(SCc2ccccc2[N+](=O)[O-])nnc1-c1cccnc1,-4%,11µM*,?,-38%
COCCSc1nnc(NC(=O)C(C)(C)C)s1,-10%,5.6µM*,4%,-46%
CC(C)(C)C(=O)Nc1nnc(SCc2cccc(F)c2)s1,?,14µM*,?,-46%
CCN(C[C@H]1N[C@@](CC)(C(=O)OC)[C@H]2C(=O)N(C)C(=O)[C@@H]12)C(=O)NC(C)C,.,10%,-5%,.
O=C(CSc1nncs1)Nc1ccc2c(c1)OCCO2,?,74%,10%,-52%
O=C(CSc1nncs1)NC(=O)Nc1ccc2c(c1)OCCO2,3%,4.5µM*,16%,-48%
Cc1ccc(C(=O)Nc2cnc3ccccc3c2)cc1,-10%,-84%,-9%,?
Cc1cc(C(=O)Nc2ccc(N3CCCC3)c(Cl)c2)ccc1[N+](=O)[O-],4%,10µM*,11%,-53%
Cc1cc(C(=O)Nc2cnc3ccccc3c2)ccc1[N+](=O)[O-],-5%,3.2µM*,24%,-71%
C=CCONC(=O)Cc1ccccc1,.,3%,11%,.
Cc1ccc(S(=O)(=O)N(CCC(=O)N2CCOCC2)c2ccccc2)cc1,.,-16%,3%,.

(continued)
Structure	Apoferritin bind	BRCA1 expr up	p53 reactivation	miR-21 reporter
CCCCn1cc(S(=O)(=O)c2ccc(CC)cc2)c(=O)c2cc(F)c(N3CCOCC3)cc21	-17%	.	.	6%
O=[N+]([O-])c1ccc(/C=N/Nc2ccccn2)cc1	-6%	1.4µM*	18%	-20%
COc1ccc(/C=N/Nc2ccc([N+](=O)[O-])cc2)cc1O	-11%	8.9µM*	?	-48%
O=[N+]([O-])c1ccc(N/N=C\c2cccnc2)nc1	-2%	2%	4%	4%
